## Yeast mating assay 2: variants of the scFv Ab-95

Data: MIT Lincoln Laboratory AlphaSeq set, Engelhart et al. 2022, doi:10.1038/s41597-022-01779-4, as distributed in FLAb.

Target: peptide PDVDLGDISGINAS, taken from heptad repeat 2 (HR2) of SARS-CoV-2 spike.

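The starting antibody came from a phage panning campaign against this peptide. Library AAYL52 holds single substitutions and randomly drawn double and triple substitutions in the CDRs. AlphaSeq pools MATa yeast showing the antibodies with MATalpha yeast showing the peptide. After mating in shaken culture at 30 °C for 16 h, diploids were selected and their barcode pairs sequenced. The ratio of observed to expected reads was calibrated, replicate by replicate, on BCL2-family standards whose Kd was known from biolayer interferometry. The assay was run in three technical replicates.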

Parent scFv Ab-95: VH joined to VL by a 15-residue (Gly4Ser)3 linker. Changes lie in the light chain CDRs alone.
VH: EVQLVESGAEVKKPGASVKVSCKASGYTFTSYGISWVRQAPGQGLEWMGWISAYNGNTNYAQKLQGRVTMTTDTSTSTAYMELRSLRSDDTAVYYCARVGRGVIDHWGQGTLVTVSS
VL: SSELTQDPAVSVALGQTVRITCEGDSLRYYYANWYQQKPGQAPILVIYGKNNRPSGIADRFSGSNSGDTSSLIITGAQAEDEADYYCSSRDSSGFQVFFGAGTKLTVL

Sequences are complete VL domains. Numbers give log10(Kd / nM), so 0 is 1 nM and 3 is 1 µM. Smaller is tighter. "nd" marks a missing value. The strain was present, yet no cells mated with the target were sequenced in that replicate, which points to weak or no binding. Background: pairings of library AAYL52 with three empty control strains gave a value in 28% of cases (median 3.91, 5th percentile 2.90). Values in that range, when seen in few replicates, are hard to tell from nonspecific mating. The control count says in how many pairings with the empty strains this scFv gave a signal, with their mean in brackets.

| # | VL | log10 Kd (nM) by replicate | signal with controls |
|---|---|---|---|
| 1 | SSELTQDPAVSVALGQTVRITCESDSLRYYYANWYQQKPGQAPILVIYKKNNRPSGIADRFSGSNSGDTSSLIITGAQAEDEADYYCSSRYSSGFQVFFGAGTKLTVL | nd 4.36 nd | 1 of 9 (3.94) |
| 2 | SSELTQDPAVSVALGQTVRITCEGGWLRYYYANWYQQKPGQAPILVIYGHNNRPSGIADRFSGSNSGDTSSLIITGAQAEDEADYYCSSRDSSGFQVFFGAGTKLTVL | 5.75 3.41 4.18 | 4 of 9 (3.99) |
| 3 | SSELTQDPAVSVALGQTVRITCEKDSLRYYYANWYQQKPGQAPILVIYGKNNRPSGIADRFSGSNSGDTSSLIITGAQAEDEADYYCSSRDSTGSQVFFGAGTKLTVL | 3.45 2.77 nd | 4 of 9 (3.92) |
| 4 | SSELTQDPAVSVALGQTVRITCEGDSLRYYYANWYQQKPGQAPILVIYGKNNRPSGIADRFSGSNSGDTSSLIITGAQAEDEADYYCSSRFSSGFWVGFGAGTKLTVL | 3.54 3.24 3.97 | 2 of 9 (3.48) |
| 5 | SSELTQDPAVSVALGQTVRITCEGDSLRYYYANWYQQKPGQAPILVIYGKNNRPVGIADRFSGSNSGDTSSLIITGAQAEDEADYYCSSRYDSGFQVFFGAGTKLTVL | 2.13 2.28 1.54 | 2 of 9 (4.53) |
| 6 | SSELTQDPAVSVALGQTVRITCEGDSVRIYYANWYQQKPGQAPILVIYGKNNRPSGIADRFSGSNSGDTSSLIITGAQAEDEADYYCSSRDSSGFQGFFGAGTKLTVL | 5.34 3.56 nd | 2 of 9 (3.71) |
| 7 | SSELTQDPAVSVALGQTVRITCEGCSLRYYYANWYQQKPGQAPILVIYGKHNRMSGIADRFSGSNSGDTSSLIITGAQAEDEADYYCSSRDSSGFQVFFGAGTKLTVL | 3.91 3.74 nd | 6 of 9 (3.79) |
| 8 | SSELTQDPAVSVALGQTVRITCMGDSLRYYYAFWYQQKPGQAPILVIYGKNNRPSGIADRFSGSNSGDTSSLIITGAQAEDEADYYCSSRVSSGFQVFFGAGTKLTVL | nd nd 4.67 | 5 of 9 (3.78) |
| 9 | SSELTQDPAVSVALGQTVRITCEGDSLRYYPANWYQQKPGQAPILVIYGKNNRKSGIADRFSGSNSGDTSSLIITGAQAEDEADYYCCSRDSSGFQVFFGAGTKLTVL | 2.46 2.49 2.47 | 2 of 9 (4.22) |
| 10 | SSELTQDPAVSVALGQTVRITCEGYSLEYYYANWYQQKPGQAPILVIYGKNNRPSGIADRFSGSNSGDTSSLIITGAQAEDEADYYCSSRDKSGFQVFFGAGTKLTVL | 2.56 2.94 2.30 | 3 of 9 (3.45) |
| 11 | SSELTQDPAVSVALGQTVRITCEGDSLRYYYADWYQQKPGQAPILVIYGKNNGASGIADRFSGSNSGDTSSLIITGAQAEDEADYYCSSRDSSGFQVFFGAGTKLTVL | nd nd 4.25 | 3 of 9 (3.57) |
| 12 | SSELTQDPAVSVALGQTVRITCEGDSLRYYYAVWYQQKPGQAPILVIYGKNNRPEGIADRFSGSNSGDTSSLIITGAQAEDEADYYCSSRDSSGTQVFFGAGTKLTVL | nd 4.04 nd | 4 of 9 (4.41) |
| 13 | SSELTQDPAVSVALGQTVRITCEGDSLRPYYANWYQQKPGQAPILVIYGKNNRPSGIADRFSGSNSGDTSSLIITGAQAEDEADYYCSSRDSSGFQNFFGAGTKLTVL | 2.47 2.38 2.82 | 1 of 9 (3.99) |
| 14 | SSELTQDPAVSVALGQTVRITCEGDALRYYYANWYQQKPGQAPILVIYGKNNTPSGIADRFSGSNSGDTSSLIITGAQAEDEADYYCSSRDSYGFQVFFGAGTKLTVL | 3.43 3.20 3.05 | 2 of 9 (3.98) |
| 15 | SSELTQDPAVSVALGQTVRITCEGDSLRYVPANWYQQKPGQAPILVIYGKFNRPSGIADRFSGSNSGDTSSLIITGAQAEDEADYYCSSRDSSGFQVFFGAGTKLTVL | 2.73 2.36 2.25 | 4 of 9 (4.37) |
| 16 | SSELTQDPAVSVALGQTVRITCEGDSLRYYYANWYQQKPGQAPILVIYGKNNRPSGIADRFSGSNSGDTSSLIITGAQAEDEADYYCTSRDSSGFQVFFGAGTKLTVL | nd 2.99 nd | 3 of 9 (3.80) |
| 17 | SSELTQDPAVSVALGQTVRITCEGDSLRYYYANWYQQKPGQAPILVIYWKNNRPSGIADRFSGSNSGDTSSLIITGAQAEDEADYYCISRDASGFQVFFGAGTKLTVL | nd nd nd | 0 of 9 |
| 18 | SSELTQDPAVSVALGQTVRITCEGDSGRYYYDNWYQQKPGQAPILVIYGKNARPSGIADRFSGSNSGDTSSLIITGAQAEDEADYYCSSRDSSGFQVFFGAGTKLTVL | nd nd nd | 0 of 9 |
| 19 | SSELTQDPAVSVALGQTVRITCEGDSSRYYYANWYQQKPGQAPILVIYGPNNYPSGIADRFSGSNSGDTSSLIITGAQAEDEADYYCSSRDSSGFQVFFGAGTKLTVL | nd 3.99 nd | 4 of 9 (4.27) |
| 20 | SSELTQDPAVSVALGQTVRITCEGDSLQYYYAGWYQQKPGQAPILVIYGKNNRPSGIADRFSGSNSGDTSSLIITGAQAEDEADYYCSSRDSSGFEVFFGAGTKLTVL | 3.56 4.47 nd | 2 of 9 (4.12) |
| 21 | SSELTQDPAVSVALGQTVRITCEGTSLRYYYVNWYQQKPGQAPILVIYGKNNRQSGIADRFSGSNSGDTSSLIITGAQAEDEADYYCSSRDSSGFQVFFGAGTKLTVL | 2.94 2.59 2.96 | 2 of 9 (5.27) |
| 22 | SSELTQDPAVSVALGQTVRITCEGDSLRYIYANWYQQKPGQAPILVIYGKNNRPSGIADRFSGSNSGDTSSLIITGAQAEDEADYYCSVRDSSGFQVFFGAGTKLTVL | 2.49 2.76 2.25 | 2 of 9 (3.71) |
| 23 | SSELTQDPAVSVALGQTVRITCEGDSLRYYYANWYQQKPGQAPILVIYGKNNRPSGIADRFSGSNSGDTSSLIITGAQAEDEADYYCSSEDQSGIQVFFGAGTKLTVL | 3.64 nd nd | 0 of 9 |
| 24 | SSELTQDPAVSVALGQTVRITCEVWSLRYYYANWYQQKPGQAPILVIYGKNNRPSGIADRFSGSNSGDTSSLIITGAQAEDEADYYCSSRDSSGFQVNFGAGTKLTVL | 3.21 3.94 nd | 1 of 9 (3.80) |
| 25 | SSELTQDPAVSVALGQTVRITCEGDSLRYYYANWYQQKPGQAPILVIYGKINRPSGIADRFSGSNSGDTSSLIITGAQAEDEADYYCFSRYSSGFQVFFGAGTKLTVL | 4.67 nd nd | 1 of 9 (2.68) |
| 26 | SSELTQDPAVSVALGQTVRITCEGPSLCYYYANWYQQKPGQAPILVIYGKNNRPSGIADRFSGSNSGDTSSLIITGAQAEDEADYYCSSRDSSGFQVFFGAGTKLTVL | 3.27 2.78 3.27 | 3 of 9 (3.87) |

Extract of 3 entries:

VL,log10 Kd (nM) by replicate,signal with controls
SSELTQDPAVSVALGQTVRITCEGDSLRYYYANWYQQKPGQAPILVIYGKNNRPSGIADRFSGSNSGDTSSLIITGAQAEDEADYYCSSEDQSGIQVFFGAGTKLTVL,3.64 nd nd,0 of 9
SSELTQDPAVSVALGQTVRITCEGDSLRYIYANWYQQKPGQAPILVIYGKNNRPSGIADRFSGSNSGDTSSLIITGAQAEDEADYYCSVRDSSGFQVFFGAGTKLTVL,2.49 2.76 2.25,2 of 9 (3.71)
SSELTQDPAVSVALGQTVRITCEGDSLRYYYANWYQQKPGQAPILVIYGKNNRPVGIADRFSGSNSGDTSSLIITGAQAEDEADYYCSSRYDSGFQVFFGAGTKLTVL,2.13 2.28 1.54,2 of 9 (4.53)